Experimental findings from ChEMBL document CHEMBL1155460, “Prediction of acetylcholinesterase inhibitors and characterization of correlative molecular descriptors by machine learning methods” (Eur J Med Chem, 2010) are described below.

Protein sequences, listed by entry. Tags and fused reporters are not part of them. Lines headed by an entry give the natural chain unless they say otherwise; changes in a name come on top.
UniProt P22303: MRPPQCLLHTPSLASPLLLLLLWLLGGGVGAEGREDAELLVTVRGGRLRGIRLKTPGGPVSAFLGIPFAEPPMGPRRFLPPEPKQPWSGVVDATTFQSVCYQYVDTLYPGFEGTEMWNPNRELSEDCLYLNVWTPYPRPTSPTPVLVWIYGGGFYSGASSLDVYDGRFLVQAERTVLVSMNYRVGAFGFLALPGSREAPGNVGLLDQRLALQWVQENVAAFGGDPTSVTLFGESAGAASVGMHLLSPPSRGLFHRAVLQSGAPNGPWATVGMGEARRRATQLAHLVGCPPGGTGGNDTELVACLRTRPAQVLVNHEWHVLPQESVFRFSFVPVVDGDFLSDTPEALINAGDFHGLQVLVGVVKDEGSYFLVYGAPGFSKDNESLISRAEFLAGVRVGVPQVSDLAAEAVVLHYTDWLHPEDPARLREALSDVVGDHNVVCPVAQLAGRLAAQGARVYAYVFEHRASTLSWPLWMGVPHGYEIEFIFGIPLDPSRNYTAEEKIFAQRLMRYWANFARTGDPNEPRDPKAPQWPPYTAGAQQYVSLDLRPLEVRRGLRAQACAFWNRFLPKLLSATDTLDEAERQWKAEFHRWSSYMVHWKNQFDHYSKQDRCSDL

This assay concerns the target Acetylcholinesterase (Homo sapiens, UniProt P22303).
In the case of `COc1ccc(CN2CCC(CCC(=O)c3ccc4c(c3)NCCCC4)CC2)cc1`, the midpoint of inhibition, the IC50, lay at 55.2 µM. This counts as double-digit micromolar.

Compound `O=C(CCC1CCN(Cc2ccccc2)CC1)c1ccc2c(c1)NCCCC2` [ZANAPEZIL] returned an IC50 of 0.1 µM.

Turning to `COc1ccc(CN2CCC(CCC(=O)c3ccc4c(c3)CCN4)CC2)cc1`, half-maximal inhibition (IC50) was put at 13.3 µM.

In the case of `CCN1CC[C@@]2(C)c3cc(OC(=O)NC(C)(C)C)ccc3C[C@@H]12`, the IC50 came out at 12.5 µM.

For the compound `O=C(CCC1CCN(Cc2ccccc2F)CC1)c1ccc2c(c1)NCCCC2`, half-maximal inhibition (IC50) was put at 0.331 µM.
